{
  "sequences": {"note": "By UniProt entry, the sequences of proteins in these tests, tags left out.", "UniProt Q00987, whole entry, looked up": "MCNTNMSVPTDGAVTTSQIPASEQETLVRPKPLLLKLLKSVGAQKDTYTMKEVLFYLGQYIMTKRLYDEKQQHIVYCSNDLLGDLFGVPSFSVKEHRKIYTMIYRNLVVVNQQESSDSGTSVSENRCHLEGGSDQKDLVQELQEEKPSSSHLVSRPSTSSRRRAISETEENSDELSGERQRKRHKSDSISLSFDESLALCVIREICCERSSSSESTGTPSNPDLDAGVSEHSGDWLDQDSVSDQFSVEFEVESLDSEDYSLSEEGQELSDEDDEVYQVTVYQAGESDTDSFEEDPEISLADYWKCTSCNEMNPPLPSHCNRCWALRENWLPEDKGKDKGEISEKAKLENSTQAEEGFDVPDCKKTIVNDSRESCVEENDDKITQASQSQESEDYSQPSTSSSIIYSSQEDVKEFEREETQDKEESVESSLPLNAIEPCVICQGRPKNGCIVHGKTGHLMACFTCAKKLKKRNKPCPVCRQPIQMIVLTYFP"},
  "source": "paper PMC4843846",
  "about": "“Towards “bionic” proteins: replacement of continuous sequences from HIF-1α with proteomimetics to create functional p300 binding HIF-1α mimics” (Chemical Communications (Cambridge, England), 2016)",
  "target": "p53/hDM2 interaction (Homo sapiens, UniProt Q00987)",
  "assay": "fluorescence anisotropy competition assay p53/hDM2",
  "assay_type": "binding",
  "conditions": "read-out: p53/hDM2 IC50",
  "from_the_text": "At first the lower inhibitory potency of both HIF-1α794–826 and hybrid 2 in comparison to helix mimetic 1 (9.2(±0.9) μM) which we determined previously,[33] might seem counterintuitive. One explanation that might account for this observation is that there may be a non-specific component to PPI inhibition associated with the aromatic oligoamide helix mimetic 1 (supported in part by a non-unity Hill co-efficient for the curve fitting, a property not observed for 2). […] We therefore performed further biophysical analysis. Although we illustrated previously that inhibition of HIF-1α/p300 by 1 was specific to the scaffold and selective in comparison to the eIF4E/4G interaction,[33] we expanded the range of assays here. […] Thus, by adding native amino acid residues from the HIF-1α sequence to the core helix mimetic 1 in hybrid 2, the specificity and selectivity of binding towards target interactions was improved.\nFig. 3 Biophysical screening of helix mimetic 1 and hybrid 2 to profile selectivity; FA competition data for inhibition of p53/hDM2.",
  "data": [
    {"smiles": "CC(C)COc1cc(C(=O)Nc2ccc(C(=O)Nc3ccc(C(=O)O)cc3OC(C)C)cc2OCC(C)C)ccc1N", "values": [
      {"measurement": "IC50", "result": 16.4, "unit": "µM"}
    ]}
  ]
}
